From patent US7977369B2, “Medical compositions for intravesical treatment of bladder cancer” (Spectrum Pharmaceuticals, Inc., priority 2001, dated 2011)

What was measured:
Test in all cases: Chemosensitivity, one hour drug exposure, MTT assay, monolayer
Format in all cases: cell-based, human
[1] = system: EJ138
Description: (§1) Cell culture and chemosensitivity studies. […] H460 (human NSCLC) cell line was obtained from the American Type Culture Collection (ATCC). HT-29 (human colon carcinoma), RT112/83 (human bladder carcinoma epithelial), EJ138 (human bladder carcinoma) and T24/83 (human bladder transitional cell carcinoma) cell lines were obtained from the European Collection of Animal Cell Cultures (ECACC). A2780 (human ovarian carcinoma) and BE (human colon carcinoma) cells were gifts from Dr T Ward (Paterson Institute, Manchester, UK). All cell lines were maintained as monolayer cultures in RPNII 1640 culture medium supplemented with fetal calf serum (10%), sodium pyruvate (2 mM), L-glutamine (2 mM), penicillin/streptomycin (50 IU/ml/50 jug/ml) and buffered with HEPES (25 mK). All cell culture materials were purchased from Gibco BRL (Paisley, UK). […] Calibration curves were conducted over a broad range of pH values in culture medium (pH 3.5 to 11) and the stability of the pH conditions monitored over a one hour incubation period at 37° C.

[2] = system: T24/83
Description: as §1

[3] = system: RT112
Description: as §1

[4] = system: A2780
Description: as §1

[5] = system: H460
Description: as §1

[6] = system: BE
Description: as §1

[7] = system: HT-29
Description: as §1

SMILES: CO[C@@]12[C@H](COC(N)=O)C3=C(C(=O)C(C)=C(N)C3=O)N1C[C@@H]1N[C@@H]12 [MMC, Mitomycin C, reference compound]
- SR (selectivity ratio) = IC50 at pH 7.4/IC50 at pH 6.0 [1]: 1.14
- SR (selectivity ratio) = IC50 at pH 7.4/IC50 at pH 6.0 [2]: 1.02
- SR (selectivity ratio) = IC50 at pH 7.4/IC50 at pH 6.0 [3]: 1.67
- SR (selectivity ratio) = IC50 at pH 7.4/IC50 at pH 6.0 [4]: 1.71
- SR (selectivity ratio) = IC50 at pH 7.4/IC50 at pH 6.0 [5]: 4.50
- SR (selectivity ratio) = IC50 at pH 7.4/IC50 at pH 6.0 [6]: 1.59
- SR (selectivity ratio) = IC50 at pH 7.4/IC50 at pH 6.0 [7]: 2.10
